In patent US9175077B2, “Nucleic acids encoding biologically active polypeptides derived from a novel early stage pregnancy factor designated maternin (MA)” (NOBEL BIOSCIENCES LLC, priority 1999, dated 2015):
Read-outs that look alike come from different tables or passages of the source.

Columns and labels:
[1] = test system: human carcinoma and sarcoma cells (PC3, KS Y-1); experiment: Xenotransplanted human tumors in immunodeficient mice; assay type: in vivo; settings: controls at equivalent and higher molar concentrations
Experimental: In the first set of experiments, MA was tested against tumors formed by xenotransplantation of various human carcinoma and sarcoma cells in immunodeficient mice. […] […] The inhibitory effects were dose-dependent and found with both native and synthetic MA and pMA. At the dose range of 60-100 pmoles there was over 70% inhibition of tumor size. […] Three different synthetic forms of MA were used: full length (MAS3) and the previously described MAS1 and MAS2 (Panel C). […] However, whether this effect is direct, and in turn facilitates tumor destruction by diminished blood supply or is a consequence of primary tumor cell killing is not settled because a rapid induction of tumor cell apoptosis may prevent release of angiogenic factors such as VEGF.

[2] = test system: hematopoietic progenitors (CFU-GEMM, BFU-e, CFU-GM, T-CFC); experiment: Hematopoietic colony formation assays; assay type: cell-based, human
From the text: Hematopoietic colony formation assays with bone marrow or cord blood of normal human volunteers and bone marrow of monkeys, rats, and mice were utilized. The assays are conventional measurements of the number of progenitors for erythrocytes, granulocytes, macrophages, platelets, and T-cells. The culture conditions included growth factors that would give near optimum growth for the particular lineage. These factors included II-3, PHA-lymphocyte conditioned medium, erythropoietin (EPO), II-6, and GM-CSF. The number of colonies developing in methylcellulose reflects the number of progenitor cells, and the percent increase is a measure of the effect of different polypeptides to increase colony number above the maximum obtained with the indicated known growth factors.
However, concentrations ranging from 10-500 ng/ml (approximately 3-150 nM) of both native MA and MAS1, MAS2, and MAS5 promoted an increase in colony number in a dose-dependent manner reaching a maximum of 60-80% increase at 30-150 nM (FIG. 9) for all hematopoietic progenitors. We observed similar results when the source of hematopoietic precursors were: human cord blood, rhesus macaque bone marrow, and rat and mouse bone marrow. Thus, like the anti-tumor and anti-viral results, the multi-lineage pro-hematopoietic effects of MA crosses several species. MA promotes CFU-GEMM FIG. 9, Panel A) which includes, precursors of granulocytes, red blood cells, and macrophages; BFU0e, (FIG. 9, Panel B) which are red blood cell precursors; CFU-GM (FIG. 9, Panel C) which include myeloid (granulocyte) and macrophage precursors; and T-CFC, (FIG. 9, Panel D) which are cells capable of forming colonies of T-cells. The latter is a less conventional assay, and details on the methods involved are described elsewhere.^178

[3] = Lethally irradiated rats and mice; settings: treated 24 and 48 hrs prior to radiation
Experimental: In order to determine in vivo relevance of the prohematopoietic effects of MA treated rats and mice under several conditions of bone marrow suppression. First, the effects of native MA and pMA and of the synthetic 15-mer MAS1 were treated for their capacity to reduce or prevent the effects of lethal doses of gamma irradiation. […] MA, pMA, MAS1, and various control polypeptides were given 48 and 24 hrs before, during, or 24 hrs after radiation. The animals treated prior to radiation received either 100 ng vs. 1 ug (rats) or 50 ng vs. 500 ng (mice) as 2 subcutaneous injections.
It is not yet possible to determine the precise molar dose of pMA because of less certainty on its full-length sequence.
To ascertain that the MA effect did promote hematopoiesis in these animals we examined the bone marrow for cellularity and colony formation and determined peripheral blood counts.

human tumor cells = assay type: cell-based; settings: controls at equimolar or 5 to 10× greater concentrations
Experimental: The anti-tumor activities of MA were assessed in several in vitro and in vivo systems using published methods.^166 In vitro studies were with a wide variety of human tumor cell lines as well as short-term cultures of cells from biopsy samples obtained from tumors. The assays included effects of MA on colony formation, cell number and viability (trypan blue), and apoptosis. Four measures of microscopy were used. In vivo studies included the effects of MA on tumors induced in immunodeficient mice by xenotransplanted various human neoplastic cells, spontaneous neoplasms of immuno-competent mice and rats, and a few standard tumors in immuno-competent mice. Representative examples are presented.
Cells (5×10^5/ml) were seeded in modified Eagle's medium supplemented with 10% FCS, 10% conditioned medium form PHA stimulated human lymphocytes, 2 mM glutamine in 0.8% V/V methylcellulose with or without various treatments in a final volume of 1.0 ml. Then 0.1 ml aliquots were seeded in 96 well flat bottom microtest plates and incubated at 37° C. in 5% CO2 in air for 7 days. Aggregates containing 50 cells or more were scored as colonies.
5×10^5 cells were seeded in triplicate on 24 gelatin coated wells in conditions as described for Panel A and treated with the indicated test materials. After 3 days the cells were dislodged from their monolayers by gentle pipetting with cell dissociation buffer (Life Technologies), counted after trypan blue staining and aliquots examined for Annexin V staining by indirect IFA […].
Studies of the anti-tumor cell effects of MA were extended to other carcinomas, melanoma, some hematopoietic tumors, and carcinomas of the colon, prostate, breast, lung, brain, pancreas, and kidney-using cell lines from these tumors. […] Less than 30 nM native and synthetic MA, including the truncated forms, produced near maximum effects. Many more types of tumor cells were studied utilizing other assays (see below).

[4] = Summary of active and inactive peptides / overall biological activities
[5] = Lethal dose taxol in Sprague-Dawley rats; assay type: in vivo; settings: even at high doses
Experimental: Sprague-Dawley rats were given taxol in large lethal doses, 4.5 mg in one I.P. inoculation. This amount lead to bone marrow cytotoxicity, resultant blood cell deficiencies, and death of the rats in less than 5 days. Bone marrow suppression can also be a side effect of the clinical use of taxol.^179 As in the radiation experiments, either MA, pMA, MAS1, or various polypeptide controls were given subcutaneously only in two doses 24 and 48 hrs before taxol treatment or were given 3×/week for 4 weeks. […] Sixty-percent (low dose) or 80-90% (higher dose) of pretreated animals survived when given MA, MAS1, or pMA. In animals in which therapy was maintained 28 days with low (100 ng) or high (1000 ng) doses of MA, MAS1, or pMA, there was 100% survival on day 5 reducing to about 60% (low dose) and 80% (high dose) maintained at this level with the animals appearing healthy now at day 80, similar to the radiation experiments. Again, no effect was obtained with pure hCG, rβ-hCG, native glycosylated β-core, control peptides, or LH even at high doses, e.g., 5000 ng of native glycosylated (3-core. Like untreated animals, these rats were all dead before day 5.
Total lymphocytes (A), platelets (B), hemoglobin (C), and red cells (D) within a few days of receiving the one inoculation of the high dose MA or MAS1 show striking rise in number (blood counts were not performed on the pMA-treated animals). […]

| Substance | effect on xenotransplanted tumor (qualitative) [1] | hematopoietic effects in vivo and in vitro [2] | effect on colony number (qualitative) ([2]; equimolar or higher concentrations) | day before which all animals died [3] | inhibition of growth / induction of apoptosis of neoplastic cells (human tumor cells) | inhibition of growth / induction of apoptosis of neoplastic cells (human tumor cells; listed as pure hCG) | biological activities in vitro or in vivo in the experimental systems described [4] | biological activities in vitro or in vivo in the experimental systems described ([4]; listed as pure hCG) | effect on survival (qualitative) [5] |
| --- | --- | --- | --- | --- | --- | --- | --- | --- | --- |
| CR127: highly purified native hCG [reference compound] | no effect | None | no significant effect above background | < 5 days | no inhibition of growth or induction of apoptosis | no effect | no activity | none of the observed activities | no effect |
| recombinant hCG: recombinant hCG [reference compound] |  |  |  |  | no inhibition of growth or induction of apoptosis |  |  |  |  |
| α-hCG: α-chain of hCG [reference compound] | no effect | None |  |  | no inhibition of growth or induction of apoptosis |  | no activity |  |  |
